Results reported in PMC6684226, “Neuropeptide B mediates female sexual receptivity in medaka fish, acting in a female-specific but reversible manner” (eLife, 2019).

How the values were obtained:
Assay type in all cases: in vivo, medaka (Oryzias latipes)
[1] = system: npba expression in Vs/Vp and PMm/PMg; test: npba expression in brain nuclei of gonad-intact medaka after immersion drug treatment (in situ hybridization); details: testis-intact adult males, 100 ng/ml E2 by immersion, n = 5
Description: (§1) DNA fragments of 645 bp, 647 bp, and 1520 bp corresponding to nucleotides 1–645 of the medaka npba cDNA (GenBank accession number NM_001308979), 1–647 of the medaka npbb EST clone of National BioResource Project (NBRP) Medaka (http://www.shigen.nig.ac.jp/medaka/) (clone ID: olova57o22), and 1699–3218 of the medaka npbwr2 cDNA (deposited in DDBJ/EMBL/GenBank with accession number LC375958), respectively, were PCR-amplified and subcloned into the pGEM-Teasy vector (Promega, Madison, WI). The resultant constructs were used to generate digoxigenin (DIG)-labeled cRNA probes for npba, npbb, and npbwr2 by using the DIG RNA Labeling Mix and T7 RNA polymerase (Roche Diagnostics). […] Color development was allowed to proceed overnight or was stopped after 2–3 hr (for quantification of npba expression in Vs/Vp) or 15–30 min (for quantification of npba expression in PMm/PMg) to avoid saturation. […]
(§2) To obtain quantitative data, the number of npba/npbb-expressing neurons in each brain nucleus or each brain/spinal cord region was counted manually. In some analyses, the resulting sections were photographed and converted to black and white binary images by thresholding using Adobe Photoshop (Adobe Systems, San Jose, CA), and the total area of npba/npbb expression was calculated by using ImageJ (http://rsbweb.nih.gov/ij/). […]

[2] = system: npba expression in Vs/Vp and PMm/PMg; test: npba expression in brain nuclei of gonadectomized medaka after sex steroid supplementation (in situ hybridization); details: 100 ng/ml E2 by immersion, 6 days, n = 5 per group, p=0.0013 for Vs/Vp and 0.0006 for PMm/PMg
Description: as §1, §2

[3] = system: npbb expression in Vs/Vp and PMm/PMg/PPp; test: npbb expression in brain nuclei of gonadectomized medaka after sex steroid supplementation (in situ hybridization); details: ovariectomized adult females, 100 ng/ml E2, 6 days; n = 5; p=0.0091 for Vs/Vp, 0.0173 for PMm/PMg
Description: as §1, §2

[4] = system: npbb expression in Vs/Vp and PMm/PMg/PPp; test: npbb expression in brain nuclei of gonad-intact medaka after immersion drug treatment (in situ hybridization); details: testis-intact adult males, 100 ng/ml E2 by immersion, 9 days; n = 5
Description: as §1, §2

Structure (SMILES): C[C@]12CC[C@@H]3c4ccc(O)cc4CC[C@H]3[C@@H]1CC[C@@H]2O [E2, estradiol-17β]
- number of npba-expressing neurons in Vs/Vp and PMm/PMg ([1]; Vs/Vp p<0.0001 on days 2, 5, and 9, PMm/PMg p<0.0001 on day 9): steadily increased over time during treatment
- total area of npba expression in Vs/Vp and PMm/PMg ([1]; Vs/Vp p=0.0013 and <0.0001 on days 5 and 9, PMm/PMg p=0.0023 on day 9): steadily increased over time during treatment
- npba expression in Vs/Vp and PMm/PMg of castrated males [2]: induced npba expression in both Vs/Vp and PMm/PMg
- npbb expression in Vs/Vp and PMm/PMg after ovariectomy [3]: restored by treatment with E2
- npbb expression in Vs/Vp or PMm/PMg/PPp [4]: no clear changes
